The text below walks through data of the Kinase Knowledgebase extract (Sharma et al. 2016).

The chains behind the UniProt entries cited, without tags or fusion partners.
UniProt P42336, whole entry, looked up, stated change not applied: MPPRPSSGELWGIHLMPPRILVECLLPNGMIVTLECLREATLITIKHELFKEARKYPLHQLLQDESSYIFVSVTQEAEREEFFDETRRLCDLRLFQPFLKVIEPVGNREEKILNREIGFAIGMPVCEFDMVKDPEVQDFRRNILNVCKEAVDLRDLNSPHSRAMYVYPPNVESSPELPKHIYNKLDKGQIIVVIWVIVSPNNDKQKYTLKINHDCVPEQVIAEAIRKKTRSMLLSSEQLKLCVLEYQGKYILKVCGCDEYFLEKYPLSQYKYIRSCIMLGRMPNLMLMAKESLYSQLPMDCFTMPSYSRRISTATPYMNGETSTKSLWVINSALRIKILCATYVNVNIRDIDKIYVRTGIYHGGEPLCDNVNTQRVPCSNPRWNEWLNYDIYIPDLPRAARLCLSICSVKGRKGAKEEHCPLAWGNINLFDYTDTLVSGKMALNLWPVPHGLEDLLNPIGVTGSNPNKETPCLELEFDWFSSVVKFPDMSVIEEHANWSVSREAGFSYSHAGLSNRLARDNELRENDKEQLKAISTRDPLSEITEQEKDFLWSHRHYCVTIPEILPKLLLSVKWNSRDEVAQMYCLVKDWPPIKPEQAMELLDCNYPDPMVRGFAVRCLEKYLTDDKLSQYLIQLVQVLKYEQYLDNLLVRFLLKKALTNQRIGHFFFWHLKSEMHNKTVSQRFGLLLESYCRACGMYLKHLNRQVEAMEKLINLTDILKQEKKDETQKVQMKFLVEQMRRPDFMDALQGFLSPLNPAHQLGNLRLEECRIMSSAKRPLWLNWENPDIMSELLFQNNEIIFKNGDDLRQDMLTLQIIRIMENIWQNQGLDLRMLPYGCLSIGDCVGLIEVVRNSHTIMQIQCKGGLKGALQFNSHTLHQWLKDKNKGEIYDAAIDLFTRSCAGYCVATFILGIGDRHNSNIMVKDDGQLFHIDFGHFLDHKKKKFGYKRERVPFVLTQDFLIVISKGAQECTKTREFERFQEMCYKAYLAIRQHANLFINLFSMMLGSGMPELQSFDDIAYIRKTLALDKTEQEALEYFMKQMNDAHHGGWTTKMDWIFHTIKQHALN

Test [1] has as its target PIK3CA (human), P42336 [Antiproliferation of PI3K Mutated BT20 Cells]. The test is described as follows: Cell-Based Assay.
In a further test the target is PIK3CA (human) (UniProt P42336). Description: Inhibition of PIK3CA Kinase Activity.

As a reminder, the IC50 is the concentration that gives 50% inhibition. Read a high IC50 as weaker potency. In turn, `COc1ncc(-c2cc3c(C)nc(N)nc3n([C@H]3CC[C@@H](O)CC3)c2=O)cc1F` registered an IC50 in test [1] of 8.02 nM. In other words, the single-digit nanomolar range.

As to `CNc1nc(C)c2cc(-c3ccc(OC)nc3)c(=O)n(C3CCCC3)c2n1`, the IC50 against PIK3CA (human) is 1.03 nM; in test [1] it was 0.793 nM.

`COc1ccc(-c2cc3c(C)nc(N)nc3n(C3CCCC3)c2=O)cn1`: the IC50 against PIK3CA (human) amounted to 2.96 nM; in test [1], 16.1 nM.

`CNc1nc(C)c2cc(-c3ccc(OC)nc3)c(=O)n([C@H]3CC[C@H](O)CC3)c2n1` had an IC50 in test [1] of 7.81 nM.

With `COc1ncc(-c2cc3c(C)nc(N)nc3n([C@H]3CC[C@H](O)CC3)c2=O)cc1F`, the IC50 in test [1] worked out at 3.1 nM.

For the molecule `CCNc1nc(C)c2cc(CCC(N)=O)c(=O)n(C3CCCC3)c2n1`, in test [1], the IC50 stood at 8370 nM. Compared with the last molecule, the IC50 is about 2700-fold higher.

With `COc1ncc(-c2cc3c(C)nc(N)nc3n(C3CCCC3)c2=O)cc1F`, in test [1], the IC50 was found to be 7.92 nM.

Consider `COc1ncc(-c2cc3c(C)nc(N)nc3n([C@H]3CC[C@@H](O)CC3)c2=O)cn1`, for which the IC50 in test [1] was found to be 43.7 nM.

Take `Cc1nc(N)nc2c1cc(-c1cnc3ccccc3c1)c(=O)n2[C@H]1CC[C@H](OCCO)CC1`: the IC50 is 17.6 nM against PIK3CA (human) and 29.5 nM in test [1].

Take `CCNc1nc(C)c2cc(-c3ccc(OC)nc3)c(=O)n(C3CCCC3)c2n1`: the values for the IC50 (against PIK3CA (human); in test [1]) were 5.03 nM and 17 nM, respectively.

As for `Cc1nc(N)nc2c1cc(-c1cn[nH]c1)c(=O)n2CC1CCCO1` (stereo not drawn), the IC50 in test [1] stood at 249 nM.

In the case of `Cc1nc(N)nc2c1cc(-c1ccc3c(c1)OCCO3)c(=O)n2[C@H]1CC[C@H](O)CC1`, the IC50 in test [1] is 34.8 nM.

Molecule `COc1ncc(-c2cc3c(C)nc(N)nc3n([C@H]3CC[C@H](OC)CC3)c2=O)cc1F` gave an IC50 in test [1] of 3.39 nM.

On to `COc1ncc(-c2cc3c(C)nc(N)nc3n([C@H]3CC[C@H](O)CC3)c2=O)cn1`, for which the IC50 in test [1] worked out at 25.1 nM.

`COc1ccc(-c2cc3c(C)nc(N)nc3n(CC(C)(C)O)c2=O)cn1`: in test [1], the IC50 was found to be 340 nM. This IC50 is about 14-fold higher than that of the molecule before.

For `COc1ccc(-c2cc3c(C)nc(N)nc3n(CC3CCOC3)c2=O)cn1` (stereo not drawn), the IC50 in test [1] was 145 nM. This IC50 lies about 2.3-fold lower than the previous one.

Turning to `Cc1nc(N)nc2c1cc(-c1cn[nH]c1)c(=O)n2[C@@H]1CC[C@@H](O)C1`, in test [1], the IC50 was 262 nM.

In test [1], `CO[C@H]1CC[C@H](n2c(=O)c(-c3cn[nH]c3)cc3c(C)nc(N)nc32)CC1` registered an IC50 of 4.69 nM.

Consider `Cc1nc(N)nc2c1cc(-c1cc[nH]n1)c(=O)n2[C@H]1CC[C@H](OCCO)CC1`, for which the 50% inhibitory concentration (IC50) against PIK3CA (human) is 14.6 nM; in test [1], 137 nM.

In turn, `COc1ccc(-c2cc3c(C)nc(N)nc3n(CC(C)C)c2=O)cn1` had an IC50 in test [1] of 79.3 nM.

In test [1], `CNc1nc(C)c2cc(C(=O)Nc3ccccn3)c(=O)n(C3CCCC3)c2n1` gave a half-maximal inhibitory concentration (IC50) of 265 nM.

Consider `Cc1nc(N)nc2c1cc(-c1cnc3[nH]ccc3c1)c(=O)n2CC(C)(C)O`, for which, in test [1], the IC50 is 116 nM.

With `Cc1nc(N)nc2c1cc(-c1cnc3ccccc3c1)c(=O)n2[C@H]1CC[C@@H](OCCO)CC1`, the IC50 against PIK3CA (human) worked out at 52.9 nM; in test [1], 96.2 nM.

The molecule `Cc1nc(N)nc2c1cc(-c1cnn(C)c1)c(=O)n2[C@@H]1CC[C@H](O)C1` came in with an IC50 in test [1] of 934 nM.

Turning to `COc1ccc(-c2cc3c(C)nc(N)nc3n(C3CCC3)c2=O)cn1`, the IC50 on PIK3CA (human) was found to be 8.2 nM; in test [1], 26.5 nM.

Take `Cc1nc(N)nc2c1cc(-c1ccc(N(C)C)nc1)c(=O)n2[C@H]1CC[C@H](O)CC1`: the IC50 against PIK3CA (human) stood at 5.9 nM; in test [1] it was 5.97 nM.

Regarding `COc1ccc(-c2cc3c(C)nc(N)nc3n(C3CCOC3)c2=O)cn1` (stereo not drawn), the figures for the IC50 (against PIK3CA (human); in test [1]) were 7.5 nM and 143 nM, respectively.

Molecule `Cc1nc(N)nc2c1cc(-c1cn[nH]c1)c(=O)n2CC1CCOC1` (stereo not drawn) showed an IC50 in test [1] of 94.9 nM.

In turn, `Cc1nc(N)nc2c1cc(Br)c(=O)n2[C@@H]1CC[C@H](O)C1` returned an IC50 in test [1] of 1040 nM.

`Cc1nc(N)nc2c1cc(-c1cnn(C)c1)c(=O)n2[C@@H]1CC[C@@H](O)C1`: the IC50 in test [1] was 1300 nM.

As for `CCOC(=O)c1cccc(-c2cc3c(C)nc(NC)nc3n(C3CCCC3)c2=O)c1`, the IC50 against PIK3CA (human) was found to be 7080 nM; in test [1], 10000 nM.

Consider `Cc1nc(N)nc2c1cc(-c1cn[nH]c1)c(=O)n2[C@@H]1CC[C@H](O)C1`, for which the IC50 in test [1] is 47.2 nM.

On to `Cc1nc(N)nc2c1cc(-c1ccc(N(C)C)nc1)c(=O)n2[C@H]1CC[C@@H](O)CC1`, for which the results for the IC50 (on PIK3CA (human); in test [1]) were 12 nM and 17.6 nM, respectively.

In test [1], `Cc1nc(N)nc2c1cc(-c1cn[nH]c1)c(=O)n2C1CCC1` displayed an IC50 of 16.7 nM.

Regarding `Cc1nc(N)nc2c1cc(-c1cn[nH]c1)c(=O)n2C(C)C`, the values for the IC50 (against PIK3CA (human); in test [1]) were 29.4 nM and 9.64 nM, respectively.

As for `CNc1nc(C)c2cc(-c3ccc(OC)nc3)c(=O)n(CCN)c2n1`, the IC50 in test [1] worked out at 1270 nM. This lies in the single-digit micromolar range.
